The source of these data is publication PMC11842024, “Reversible male contraception by targeted inhibition of serine/threonine kinase 33” (Science (New York, N.Y.), 2024).

Amino acid sequences for entries named in this document (tags omitted). A change or cut given only in a name is not applied to a line headed by its entry.
UniProt Q9BYT3: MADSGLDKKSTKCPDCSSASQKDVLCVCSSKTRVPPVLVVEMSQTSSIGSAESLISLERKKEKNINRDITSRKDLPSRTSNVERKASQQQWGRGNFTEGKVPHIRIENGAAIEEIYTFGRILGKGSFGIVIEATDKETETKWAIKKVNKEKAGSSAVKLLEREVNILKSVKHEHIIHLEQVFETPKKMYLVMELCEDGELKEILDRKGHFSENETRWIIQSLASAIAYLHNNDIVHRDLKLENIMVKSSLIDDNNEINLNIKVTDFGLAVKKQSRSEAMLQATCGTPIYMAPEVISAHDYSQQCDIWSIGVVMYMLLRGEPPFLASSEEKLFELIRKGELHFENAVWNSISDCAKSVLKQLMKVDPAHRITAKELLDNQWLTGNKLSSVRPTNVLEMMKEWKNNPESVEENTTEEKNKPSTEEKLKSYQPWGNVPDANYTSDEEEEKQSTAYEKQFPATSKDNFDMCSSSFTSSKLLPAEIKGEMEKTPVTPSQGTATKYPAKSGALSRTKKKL

Read-outs that look alike come from different tables or passages of the source.

The target of assay [1] is T1, STK33 (Homo sapiens, UniProt Q9BYT3). The assay is described as follows: NanoBRET target engagement intracellular kinase assay. In kind it is cell-based. Also noted: host or cells: HEK293 (HEK293T cultured). The settings on record: HEK293 cells, 2 hours incubation. Here is the method: NanoBRET Target Engagement intracellular kinase assay. HEK293T cells were cultured in […]
The cell line underwent authentication by short tandem repeat (STR) profiling at Cytogenetics and Cell Authentication Core (CCAC) at MD Anderson Cancer Center. NanoBRET Target Engagement intracellular kinase assay, K-10 assay (Cat. # N2641), K-9 assay (Cat. # N2631), transfection reagent FuGENE HD (Cat. # E2311), transfection carrier DNA (Cat. # E4881), NanoLuc-STK33 fusion vector (Cat. # NV2111), NanoLuc-RET fusion vector (Cat. # NV1951), NanoLuc-CLK1 fusion vector (Cat. # NV1131), NanoLuc-CLK2 fusion vector (Cat. # NV1141), and NanoLuc-CLK4 fusion vector (Cat. # NV1151) were purchased from Promega. The measurement of test compound engagement with cellular target protein was performed in a 384-well format according to manufacturer’s instructions. HEK293 cells were transiently transfected with NanoLuc (STK33, RET, CLK1, CLK2, and CLK4) fusion vectors. […]
0.4 nM at a fixed tracer concentration. Staurosporine was measured in parallel as a positive control.
Freshly prepared NanoBRET Nano-Glo substrate plus extracellular NanoLuc inhibitor was then added to initiate the subsequent bioluminescence resonance energy transfer (BRET) measurements using a CLARIOstar Plus BMG LABTECH plate reader. […]

In assay [2] the target is T1, STK33. The assay can be described thus: LanthaScreen binding assay (ThermoFisher SelectScreen). Also noted: purchased SelectScreen Services (ThermoFisher). The source says: In vitro biochemical assays. Several small molecule assays were outsourced to SelectScreen Services (ThermoFisher) for STK33 and for off-target kinases (data sets are available on demand).
These assays are LanthaScreen (binding assay) and Z’-LYTE (activity assay). Dose-responses were done with at least 5 different concentrations in duplicates, and parameters were optimized by calculations described below and provided with standard errors.
Calculation of Kd values for kinase inhibitors that bind to the ATP pocket of a kinase from LanthaScreen binding data. DynaFit (71) was used to fit complex equilibria where a tracer is displaced by a dilution series of a kinase inhibitor. This method relies on the concentration of inhibitor, as well as the concentration of kinase and tracer, and Kd of the tracer. The latter three parameters are tabulated by ThermoFisher for each kinase in the LanthaScreen assay panel. […]
Since Kd and Ki values are defined the same way, in other words, Kd = [E] [I] / [EI] = Ki, Kd and Ki values can be compared. […]
In general terms: Time-resolved FRET reads energy transfer from a long-lived donor to a nearby acceptor.

Assay [3] deals with T1, STK33. Also noted: purchased SelectScreen Services (ThermoFisher). The settings on record: read-out: reported IC50 in biochemical assays; cited from earlier work.

One may read the IC50 as the concentration that gives 50% inhibition. For orientation: Kd means the concentration at which binding is half-saturated. Higher therefore signals weaker binding. In the case of ML281 [reference compound], the IC50 at STK33 [1] was 7710 nM; at STK33 [3] it was 14 nM. Moreover, the affinity at STK33 [2], expressed as Kd, was 39.6 nM.
